The nature of series [1]: Zeta potential measurement (electrophoretic light scattering). In kind it is physicochemical. Here is the method:
(§1) Sample characteristics (particle size, polydispersity and zeta-potential) were measured by a dynamic light scattering method using Malvern Zeta Sizer Nano-S90 instrument according to the manufacturer recommendations. Briefly, hydrodynamic diameter (dh) and polydispersity index (PDI) of nanogel/microgels were obtained for 1 mg/mL aqueous solutions at 25° C. in triplicates after sonication for 30 min and centrifugation at 12,000 rpm. Zeta-potential of the samples was measured for the same solutions in standard 1 cm-cuvettesusing zeta-potential option in the company's software. Average of five measurements±SD was registered.
(§2) Peptide concentration was estimated by BCA (Pierce) protein assay against a standard curve of free peptide. Zeta potential and size was measured on non-rhodamine product using electrophoretic light scattering and dynamic light scattering, respectively (Zetasizer, Malvern). The Z averaged particle size is 15 nm and the full width at half maximum of the distribution peak is 24 nm. Zeta potentials for 1-Arg, 2-Arg, 3-Arg and 4-Arg peptide conjugates were 0.07 mV, 2.2 mV, 4.6 mV and 9.2 mV respectively (Table 2).

The nature of series [2]: Particle size measurement (dynamic light scattering). The series is classed as physicochemical. Here is the method: as §1, §2

The substance “CDEX70-3pyrrol-adipic-N-Sar-Tyr-Asn-Leu-Tyr-Arg-Val-Arg-Ser-amide” returned a Zeta potential in series [1] of 2.31 ± 0.38 mV. Moreover, the “release of bioactive peptide per day of the NP-bound amount” value (HEPES buffer, pH7.4, 37° C) is “approximately 2 % per day”. The “half-life of peptide release” value (pH 7.4) came out at 28 days. In series [2], this substance yielded a Particle size of 178.3 ± 9.42 nm.

Source of the values: patent US11207423B2, “Nanocarriers having surface conjugated peptides and uses thereof for sustained local release of drugs” (Northwestern University, priority 2016, dated 2021).
